Consider one substance from article PMC7181047, “Flame-Made Calcium Phosphate Nanoparticles with High Drug Loading for Delivery of Biologics” (Molecules, 2020).

A short description of series [1]: Loading of macromolecules on CaP nanoparticles by physisorption (BCA assay of supernatant). Type of series: physicochemical. As to conditions: physisorption on flame-made CaP nanoparticles, PBS pH 7.4, room temperature, up to 24 h, particle and macromolecule concentration both 500 μg/mL. Here is the method:
Suspensions of protein and peptide-loaded CaP nanoparticles in PBS pH 7.4 (200 μL sample volume) were prepared by the addition of 100 μL of dispersed CaP nanoparticles in PBS pH 7.4 to an equal volume of protein/peptide solution of initial concentration ranging from 200 to 2000 μg/mL. The suspensions were placed on a roller mixer (Stuart SRT9D, Staffordshire, UK) for gentle mixing at 60 rpm at room temperature for 1, 2, 4, 6 and 24 h to investigate the effect of time on adsorption. The particles were separated via centrifugation at 10,000 rpm for 20 min (particle separation was confirmed by monitoring the luminescence of the CaP:Eu nanoparticles in the supernatant that was absent) and the supernatant containing the macromolecule content that has not been adsorbed was collected for quantification using a Pierce bicinchoninic acid (BCA) protein assay kit (ThermoFisher Scientific, Göteborg, Sweden) according to manufacturer’s instructions. Absorbance was measured at 562 nm using a microplate reader (SpectraMax Plus, Molecular Devices, San Jose, CA, USA) and the amount of macromolecules was calculated from a calibration curve. The amount of protein/peptide was calculated from the difference between the initial concentration and the concentration of the supernatant. Furthermore, the loaded particles were washed once with PBS and re-dispersed in PBS. […]

Series [2] is described as follows: ζ-potential titration at different pH (isoelectric point). Type of series: physicochemical. Conditions: pure macromolecules, macromolecules concentration ~100 µg/ml. Here is the method: Phase identification of the as-prepared powders was performed by X-Ray diffraction (XRD). XRD data were collected at ambient temperature with a MiniFlex X-ray diffractometer (Rigaku Europe, Neu-Isenburg, Germany) utilizing Cu Kα1 radiation (1.5406 Å) and operating at 40 kV and 15 mA. XRD patterns were recorded between 10 and 80° 2θ at a step size of 0.01°. Rietveld refinement was performed using the Rigaku software. The specific surface area (SSA) was determined by the nitrogen adsorption–desorption isotherms (Brunauer-Emmett-Teller, BET method,) in liquid nitrogen at 77 K using a Tristar II Plus (Micromeritics, Norcross, GA, USA) instrument after degassing for at least 3 h at 110 °C. […] Size distribution and surface charge of CaP and CaP-loaded nanoparticles were evaluated by dynamic light scattering (DLS) and ζ-potential analysis, respectively, in a Malvern Panalytical Zetasizer Ultra instrument (Malvern, UK) at 100 μg/mL particle concentration. […] Absorbance measurements at 225 nm were performed using an Analytik Jena Specord 210 Plus ultraviolet and visible (UV-vis) spectrophotometer (Jena, Germany). The absorbance at 225 nm (where maximum absorbance of CaP nanoparticles was observed) is monitored over time in a partially covered cuvette in order to monitor only the top suspension layer according to the method presented in Spyrogianni et al..

In the case of bovine serum albumin [BSA], the “Loading capacity (loading values reached)” value in series [1] is on record as 350 mg/g of CaP. The isoelectric point in series [2] is ~ 5.
